What was measured:
Stat3 = Stat3 (Homo sapiens, UniProt P40763); experiment: Stat3 SH2/pY-peptide binding assay (SPR, BIAcore); settings: read-out: SPR IC50; Table 6, mean ± SD
[1] = system: SUM159PT and HS578T cells; experiment: Mammosphere assay (MSFE) in vitro; assay type: cell-based

Protein sequences, listed by entry. Tags and fused reporters are not part of them.
UniProt P40763, whole entry: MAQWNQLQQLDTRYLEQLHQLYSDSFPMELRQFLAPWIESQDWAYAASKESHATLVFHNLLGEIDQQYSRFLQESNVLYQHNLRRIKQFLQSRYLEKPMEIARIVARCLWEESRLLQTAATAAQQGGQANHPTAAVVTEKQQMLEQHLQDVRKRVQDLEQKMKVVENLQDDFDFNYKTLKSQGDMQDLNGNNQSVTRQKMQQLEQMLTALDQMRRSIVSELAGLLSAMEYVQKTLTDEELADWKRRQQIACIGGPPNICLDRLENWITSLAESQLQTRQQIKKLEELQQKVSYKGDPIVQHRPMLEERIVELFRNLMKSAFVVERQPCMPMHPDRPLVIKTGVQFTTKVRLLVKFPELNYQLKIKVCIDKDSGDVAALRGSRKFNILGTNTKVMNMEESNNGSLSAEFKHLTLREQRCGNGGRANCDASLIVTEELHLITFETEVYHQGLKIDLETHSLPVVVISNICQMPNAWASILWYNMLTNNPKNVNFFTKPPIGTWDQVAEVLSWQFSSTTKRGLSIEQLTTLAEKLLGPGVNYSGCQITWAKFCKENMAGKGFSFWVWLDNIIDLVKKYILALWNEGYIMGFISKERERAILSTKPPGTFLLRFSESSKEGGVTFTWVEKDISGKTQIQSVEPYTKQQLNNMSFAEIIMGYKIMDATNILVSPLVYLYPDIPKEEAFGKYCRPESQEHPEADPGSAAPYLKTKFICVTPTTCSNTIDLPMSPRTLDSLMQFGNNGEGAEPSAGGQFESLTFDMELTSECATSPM

Row | SMILES | IC50 (Stat3) | effect on self-renewal as measured by MSFE ([1]; initial studies) | activity in decreasing MSFE compared with parent Cpd188 ([1]; relative to parent compound) | IC50 ([1]; read-out: Mammosphere ~IC50, SUM159PT and HS578T cells, compound at 1, 10 or 100 μM, spheres counted on day 3)
1 | O=S(=O)(Nc1cc(Sc2ncn[nH]2)c(O)c2ccccc12)c1ccc(Br)cc1 | 2 µM | affects self-renewal | 1 log greater activity | –
2 | Cc1cc(C)c(S(=O)(=O)Nc2cc(Cl)c(O)c3ccccc23)cc1C | 8 µM | – | – | 30 µM

— patent publication US8779001B2, “Stat3 inhibitors” (The United States of America National Institute of Health …, priority 2008, dated 2014)
